Tests used:
[1] = Displacement of [131I]-[D-Ala2,4'-I-Phe8]alpha-Neoendorphin from opioid receptor in CD-1 mouse brain after 90 mins by competitive binding assay; type: tissue-based
Mu-type opioid receptor = Mu-type opioid receptor (Homo sapiens, UniProt P35372); assay: Displacement of [125]IBNtxA from MOR-1 (unknown origin) transfected in CHO cells after 90 mins by competitive binding assay; type: cell-based

Sequences of proteins named here, by UniProt entry; tags and fusion partners are left off.
UniProt P35372, whole entry: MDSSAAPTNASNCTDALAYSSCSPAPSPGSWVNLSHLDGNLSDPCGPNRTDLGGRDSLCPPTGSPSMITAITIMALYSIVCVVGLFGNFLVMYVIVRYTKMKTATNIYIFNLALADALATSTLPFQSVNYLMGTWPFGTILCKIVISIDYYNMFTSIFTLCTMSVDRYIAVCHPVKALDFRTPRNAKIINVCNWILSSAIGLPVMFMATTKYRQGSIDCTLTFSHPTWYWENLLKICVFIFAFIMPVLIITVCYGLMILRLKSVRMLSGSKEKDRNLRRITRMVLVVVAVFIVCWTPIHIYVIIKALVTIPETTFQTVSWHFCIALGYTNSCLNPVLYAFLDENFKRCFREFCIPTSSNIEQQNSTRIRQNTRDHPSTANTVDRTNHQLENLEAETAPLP

Row | Compound | Ki [1] [nM] | Ki (Mu-type opioid receptor) [nM]
1 | CC1(C)SSC(C)(C)C(NC(=O)[C@@H](N)Cc2ccc(O)cc2)C(=O)NCC(=O)N[C@H](Cc2ccccc2)C(=O)NC1C(=O)O (stereo in doubt) | 3.8 | 
2 | CC(C)C[C@H](NC(=O)[C@H](Cc1ccccc1)NC(=O)CNC(=O)CNC(=O)[C@@H](N)Cc1ccc(O)cc1)C(=O)N[C@@H](CCCNC(=N)N)C(=O)N[C@@H](CCCCN)C(=O)N[C@@H](Cc1ccc(O)cc1)C(=O)N1CCC[C@H]1C(=O)N[C@@H](CCCCN)C(=O)O |  | 7.3
